{"source": "ChEMBL document CHEMBL1138063", "about": "“Imidazole-dioxolane compounds as isozyme-selective heme oxygenase inhibitors” (J Med Chem, 2006)", "species": "Rattus norvegicus", "assay": "Selectivity index, rat HO2/HO1"}
{"smiles": "Clc1ccc(CCC2(Cn3ccnc3)OCCO2)cc1", "values": [{"measurement": "Selectivity index", "result": "> 25"}]}
